Experimental data published in patent US7291673B2, “Conjugate addition reactions for the controlled delivery of pharmaceutically active compounds” (Eidgenossiche Technische Hochschule Zurich, priority 2000, dated 2007).

System: rats
Assay: Ectopic (subcutaneous) bone formation in the rat
Assay type: in vivo
Conditions: subcutaneous implant in rats, two weeks; 250 μg/ml of precursor solution
Method: Materials were made essentially according to Example 3, but under sterile conditions and with PEG-3500-3A, a molar ratio of acrylates: thiols of 1:1, and a molar ratio of GCGYGRGDSPG: acrylates of 1/12. At the time of gel formation, a recombinant human growth factor, BMP-2, which induces bone formation was added to the precursor solution at a concentration of 250 μg/ml of precursor solution. Precursor solution was added to hemostatic collagen sponges (Helistat; 8 mm diameter, approximately 3.5 mm height). Precursor solution was added until the sponges could not absorb more solution (approximately 160 μl). The gels were allowed to solidify in the sponges. Gels were briefly washed with PBS then kept minimally wet until implantation subcutaneously in rats. The implants were removed after two weeks, fixed, and hematoxylin and eosin stained.

B1: BMP-2: recombinant human growth factor which induces bone formation, delivered in PEG-3500-3A gel (protein, UniProt P12643 283-396, looked up)
Bone morphogenetic protein 2: QAKHKQRKRLKSSCKRHPLYVDFSDVGWNDWIVAPPGYHAFYCHGECPFPLADHLNSTNHAIVQTLVNSVNSKIPKACCVPTELSAISMLYLDENEKVVLKNYQDMVVEGCGCR
  bone formation: promoted bone formation
